Source: US20180280542A1, “PORTABLE BIOLU[…] AND METHODS FOR IN VIVO MONITORING OF MOLECULAR AND METABOLIC EVENTS IN ANIMALS” (Ecole Polytechnique Fédérale de Lausanne (EPFL), priority 2017, published 2018)

By UniProt entry, the sequences of proteins in these tests, tags left out. Where a name states a change or a piece, a line headed by the entry shows the natural chain unless it says otherwise.
UniProt P28843: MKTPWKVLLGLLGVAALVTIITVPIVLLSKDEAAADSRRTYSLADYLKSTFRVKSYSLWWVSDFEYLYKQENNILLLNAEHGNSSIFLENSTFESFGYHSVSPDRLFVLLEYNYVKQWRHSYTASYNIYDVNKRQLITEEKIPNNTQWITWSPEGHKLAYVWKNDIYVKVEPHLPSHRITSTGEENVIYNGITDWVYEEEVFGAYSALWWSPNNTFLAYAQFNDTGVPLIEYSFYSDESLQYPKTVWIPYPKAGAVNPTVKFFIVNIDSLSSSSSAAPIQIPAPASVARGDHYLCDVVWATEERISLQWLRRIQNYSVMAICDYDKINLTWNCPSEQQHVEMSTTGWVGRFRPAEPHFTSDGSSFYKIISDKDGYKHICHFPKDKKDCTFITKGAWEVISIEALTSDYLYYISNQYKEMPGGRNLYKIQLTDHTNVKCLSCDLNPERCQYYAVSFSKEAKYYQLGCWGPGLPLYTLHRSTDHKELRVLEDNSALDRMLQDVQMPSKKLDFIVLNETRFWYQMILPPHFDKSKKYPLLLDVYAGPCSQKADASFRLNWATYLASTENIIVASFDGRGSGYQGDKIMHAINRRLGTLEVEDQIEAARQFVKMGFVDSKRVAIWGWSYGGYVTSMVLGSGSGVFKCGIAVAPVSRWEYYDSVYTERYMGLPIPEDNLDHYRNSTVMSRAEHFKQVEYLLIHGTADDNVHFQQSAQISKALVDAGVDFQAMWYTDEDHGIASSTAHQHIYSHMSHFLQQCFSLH

Biological target: dipeptidyl peptidase-4 (DPP4) (Mus musculus, UniProt P28843)
Conditions: wild type nude mice with luciferase matrigel plug, DPP4 caged luciferin probe

SMILES: N[C@@H](CC(=O)N1CCn2c(nnc2C(F)(F)F)C1)Cc1cc(F)c(F)cc1F [sitagliptin]
- bioluminescent signal from inhibitor treated animals as compared to animals treated with PBS (times lower) (signal recorded with IVIS system (FIG. 6A)): approximately 10 times
- bioluminescent signal from inhibitor treated animals as compared to animals treated with PBS (times lower) (signal recorded with portable sensor microsystem (FIG. 6B)): approximately 10 times

Where two headings read alike, the source gives them in different places.
